Data: patent US7981882B2 (dated 2011)

Protein sequences, listed by entry. Tags and fused reporters are not part of them.
UniProt P28223, whole entry: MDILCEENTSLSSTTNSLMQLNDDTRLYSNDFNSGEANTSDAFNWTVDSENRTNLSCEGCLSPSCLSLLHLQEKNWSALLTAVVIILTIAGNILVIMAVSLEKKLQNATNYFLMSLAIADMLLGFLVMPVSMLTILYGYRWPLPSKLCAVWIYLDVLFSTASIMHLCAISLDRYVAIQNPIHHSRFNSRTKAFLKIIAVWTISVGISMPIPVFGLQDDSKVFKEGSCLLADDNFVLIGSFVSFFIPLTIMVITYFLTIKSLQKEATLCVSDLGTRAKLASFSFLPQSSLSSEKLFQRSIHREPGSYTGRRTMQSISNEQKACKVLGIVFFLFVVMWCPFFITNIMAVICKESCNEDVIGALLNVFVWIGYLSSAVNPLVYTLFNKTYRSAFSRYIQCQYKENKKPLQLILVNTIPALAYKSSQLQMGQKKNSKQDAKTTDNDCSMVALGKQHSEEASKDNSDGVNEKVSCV
UniProt P41595, whole entry: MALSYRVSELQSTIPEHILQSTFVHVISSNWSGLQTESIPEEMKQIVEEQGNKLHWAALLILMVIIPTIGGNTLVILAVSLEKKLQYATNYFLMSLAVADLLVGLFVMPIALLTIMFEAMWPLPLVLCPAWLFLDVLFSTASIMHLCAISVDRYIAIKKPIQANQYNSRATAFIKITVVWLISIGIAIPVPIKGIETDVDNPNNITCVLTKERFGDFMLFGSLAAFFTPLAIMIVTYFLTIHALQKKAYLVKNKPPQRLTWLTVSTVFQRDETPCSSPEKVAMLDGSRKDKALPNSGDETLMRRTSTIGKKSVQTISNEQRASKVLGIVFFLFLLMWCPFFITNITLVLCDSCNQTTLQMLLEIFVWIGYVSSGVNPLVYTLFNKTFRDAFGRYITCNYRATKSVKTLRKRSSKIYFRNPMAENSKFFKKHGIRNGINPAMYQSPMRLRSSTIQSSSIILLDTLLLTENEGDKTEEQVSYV

Legend:
[1] = biological target: human 5-HT2A receptor (Homo sapiens, UniProt P28223); settings: normalized AUC at 5-HT2C / normalized AUC at 5-HT2A, relative to 5-HT
[2] = biological target: human 5-HT2B receptor (Homo sapiens, UniProt P41595); settings: normalized AUC at 5-HT2C / normalized AUC at 5-HT2B, relative to 5-HT

Structure (SMILES): Clc1cccc(N2CCNCC2)c1 [mCPP, meta-chlorophenylpiperazine]
- Selectivity Ratio AUC 2C/2A [1]: 2.1
- Selectivity Ratio AUC 2C/2B [2]: 2.1
